Test results as given in patent publication US20050255041A1, “Cancerous disease modifying antibodies” (Arius Research, Inc., priority 2004, published 2005).

What was measured:
[1] = system: Hey; test: Binding by flow cytometry (FACS); set-up: species or system human; conditions: printed: AR2A72.10 20 mg/mL, anti-fas 10 mg/mL, anti-EGFR C225 5 mg/mL; on ice 30 minutes
Description: (§1) Binding of AR2A72.10 to the above-mentioned panel of cancer and normal cell lines was also assessed by flow cytometry (FACS). Cells were prepared for FACS by initially washing the cell monolayer with DPBS (without Ca^++ and Mg^++). Cell dissociation buffer (INVITROGEN, Burlington, ON) was then used to dislodge the cells from their cell culture plates at 37° C. After centrifugation and collection, the cells were resuspended in DPBS containing MgCl2, CaCl2 and 2 percent fetal bovine serum at 4° C. (staining media) and counted, aliquoted to appropriate cell density, spun down to pellet the cells and resuspended in staining media at 4° C. in the presence of test antibodies (AR2A72.10) or control antibodies (isotype control, anti-Fas) at 20 μg/mL on ice for 30 minutes. Prior to the addition of Alexa Fluor 488-conjugated secondary antibody the cells were washed once with staining media. The Alexa Fluor 488-conjugated antibody in staining media was then added for 30 minutes. The cells were then washed for the final time and resuspended in fixing media (staining media containing 1.5% paraformaldehyde). Flow cytometric acquisition of the cells was assessed by running samples on a FACScan using the CellQuest software (BD Biosciences, Oakville, ON). The forward (FSC) and side scatter (SSC) of the cells were set by adjusting the voltage and amplitude gains on the FSC and SSC detectors. […] Table 3 tabulated the mean fluorescence intensity fold increase above isotype control and is presented qualitatively as: less than 1.5 (−); 1.5 to 3 (+); 4 to 10 (++); 11 to 100 (+++) and >100 (++++).

[2] = system: ES-2; test: Binding by flow cytometry (FACS); set-up: species or system human; conditions: printed: AR2A72.10 20 mg/mL, anti-fas 10 mg/mL, anti-EGFR C225 5 mg/mL; on ice 30 minutes
Description: as §1

[3] = system: OVCAR-3; test: Binding by flow cytometry (FACS); set-up: species or system human; conditions: printed: AR2A72.10 20 mg/mL, anti-fas 10 mg/mL, anti-EGFR C225 5 mg/mL; on ice 30 minutes
Description: as §1

[4] = system: OV2008; test: Binding by flow cytometry (FACS); set-up: species or system human; conditions: printed: AR2A72.10 20 mg/mL, anti-fas 10 mg/mL, anti-EGFR C225 5 mg/mL; on ice 30 minutes
Description: as §1

[5] = system: OCC-1; test: Binding by flow cytometry (FACS); set-up: species or system human; conditions: printed: AR2A72.10 20 mg/mL, anti-fas 10 mg/mL, anti-EGFR C225 5 mg/mL; on ice 30 minutes
Description: as §1

[6] = system: C-13; test: Binding by flow cytometry (FACS); set-up: species or system human; conditions: printed: AR2A72.10 20 mg/mL, anti-fas 10 mg/mL, anti-EGFR C225 5 mg/mL; on ice 30 minutes
Description: as §1

[7] = system: Hs888.Lu; test: Binding by flow cytometry (FACS); set-up: species or system human; conditions: printed: AR2A72.10 20 mg/mL, anti-fas 10 mg/mL, anti-EGFR C225 5 mg/mL; on ice 30 minutes
Description: as §1

[8] = system: CCD-27sk; test: Binding by flow cytometry (FACS); set-up: species or system human; conditions: printed: AR2A72.10 20 mg/mL, anti-fas 10 mg/mL, anti-EGFR C225 5 mg/mL; on ice 30 minutes
Description: as §1

[9] = system: OVCA-429; test: Binding by flow cytometry (FACS); set-up: species or system human; conditions: printed: AR2A72.10 20 mg/mL, anti-fas 10 mg/mL, anti-EGFR C225 5 mg/mL; on ice 30 minutes
Description: as §1

[10] = system: A2780-cp; test: Binding by flow cytometry (FACS); set-up: species or system human; conditions: printed: AR2A72.10 20 mg/mL, anti-fas 10 mg/mL, anti-EGFR C225 5 mg/mL; on ice 30 minutes
Description: as §1

[11] = system: OVCAR-3; test: Live/Dead cytotoxicity assay, purified antibody; assay type: cell-based, human; conditions: 5 days; AR2A72.10 and AR3BD-26 20 μg/mL, anti-fas and anti-Her2/neu 10 μg/mL, anti-EGFR 5 μg/mL, cycloheximide 0.5 μM, NaN3 0.1%

anti-EGFR: anti-EGFR (C225, IgG1, kappa, Cedarlane), positive control antibody
FACS mean fluorescence intensity fold increase above isotype control, Hey [1]: +++ (11 to 100) | FACS mean fluorescence intensity fold increase above isotype control, ES-2 [2]: +++ (11 to 100) | FACS mean fluorescence intensity fold increase above isotype control, OVCAR-3 [3]: +++ (11 to 100) | FACS mean fluorescence intensity fold increase above isotype control, OV2008 [4]: +++ (11 to 100) | FACS mean fluorescence intensity fold increase above isotype control, OCC-1 [5]: +++ (11 to 100) | FACS mean fluorescence intensity fold increase above isotype control, C-13 [6]: +++ (11 to 100) | FACS mean fluorescence intensity fold increase above isotype control, Hs888.Lu (normal) [7]: +++ (11 to 100) | FACS mean fluorescence intensity fold increase above isotype control, CCD-27sk (normal) [8]: ++ (4 to 10) | FACS mean fluorescence intensity fold increase above isotype control, OVCA-429 [9]: +++ (11 to 100) | FACS mean fluorescence intensity fold increase above isotype control, A2780-cp [10]: + (1.5 to 3) | In vitro cytotoxicity, OVCAR-3 [11]: + (2/4 experiments greater than threshold cytotoxicity)
